Assay results: ChEMBL document CHEMBL5376006, “Discovery of a Hidden Pocket beneath the NES Groove by Novel Noncovalent CRM1 Inhibitors” (J Med Chem, 2023)

The chains behind the UniProt entries cited, without tags or fusion partners.
UniProt O14980, whole entry: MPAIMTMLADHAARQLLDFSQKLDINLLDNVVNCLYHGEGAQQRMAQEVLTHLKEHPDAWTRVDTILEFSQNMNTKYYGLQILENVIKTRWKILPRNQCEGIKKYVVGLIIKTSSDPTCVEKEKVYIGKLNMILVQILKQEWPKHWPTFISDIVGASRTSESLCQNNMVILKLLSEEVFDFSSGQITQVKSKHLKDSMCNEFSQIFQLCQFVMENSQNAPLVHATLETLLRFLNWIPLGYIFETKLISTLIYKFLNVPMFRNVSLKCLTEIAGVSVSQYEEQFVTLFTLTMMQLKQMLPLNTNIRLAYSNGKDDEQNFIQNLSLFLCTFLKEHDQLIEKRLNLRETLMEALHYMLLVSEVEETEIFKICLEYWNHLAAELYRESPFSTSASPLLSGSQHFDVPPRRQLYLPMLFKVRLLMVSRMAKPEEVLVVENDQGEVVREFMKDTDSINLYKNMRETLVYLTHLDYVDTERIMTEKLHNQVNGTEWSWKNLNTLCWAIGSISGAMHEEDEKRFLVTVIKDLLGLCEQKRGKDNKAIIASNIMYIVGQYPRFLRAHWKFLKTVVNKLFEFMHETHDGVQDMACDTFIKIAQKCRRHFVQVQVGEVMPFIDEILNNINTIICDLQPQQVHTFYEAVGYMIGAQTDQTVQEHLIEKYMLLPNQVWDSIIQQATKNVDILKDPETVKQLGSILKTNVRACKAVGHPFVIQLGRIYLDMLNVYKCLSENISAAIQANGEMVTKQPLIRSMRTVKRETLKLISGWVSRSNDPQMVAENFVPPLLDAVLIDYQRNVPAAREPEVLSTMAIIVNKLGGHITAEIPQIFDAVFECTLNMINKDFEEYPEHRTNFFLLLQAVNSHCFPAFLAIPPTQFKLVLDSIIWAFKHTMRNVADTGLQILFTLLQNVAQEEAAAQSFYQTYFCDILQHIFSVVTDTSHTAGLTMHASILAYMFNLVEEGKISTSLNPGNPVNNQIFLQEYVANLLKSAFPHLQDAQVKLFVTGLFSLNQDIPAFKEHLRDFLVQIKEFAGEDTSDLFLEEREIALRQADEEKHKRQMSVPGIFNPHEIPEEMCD

Biological target: Exportin-1 (Homo sapiens, UniProt O14980)
Experiment: Covalent inhibition of CRM1 (unknown origin) binding to GST-tagged NES PKI assessed as CRM1/NES band ratio at 20 uM incubated for 1.5 hrs by Coomassie brilliant blue staining based pull-down assay

Ratio: 0.01
Compound: O=C(/C=C\n1cnc(-c2cc(C(F)(F)F)cc(C(F)(F)F)c2)n1)NNc1cnccn1 [SELINEXOR]
